Data taken from patent EP2128158A1, “Heterocyclic cyclopropyl-substituted FXR binding compounds” (Phenex Pharmaceuticals AG, priority 2008, dated 2009).

Chains of the proteins cited; added tags and fusions are not shown. Lines headed by an entry give the natural chain unless they say otherwise; changes in a name come on top.
UniProt Q96RI1: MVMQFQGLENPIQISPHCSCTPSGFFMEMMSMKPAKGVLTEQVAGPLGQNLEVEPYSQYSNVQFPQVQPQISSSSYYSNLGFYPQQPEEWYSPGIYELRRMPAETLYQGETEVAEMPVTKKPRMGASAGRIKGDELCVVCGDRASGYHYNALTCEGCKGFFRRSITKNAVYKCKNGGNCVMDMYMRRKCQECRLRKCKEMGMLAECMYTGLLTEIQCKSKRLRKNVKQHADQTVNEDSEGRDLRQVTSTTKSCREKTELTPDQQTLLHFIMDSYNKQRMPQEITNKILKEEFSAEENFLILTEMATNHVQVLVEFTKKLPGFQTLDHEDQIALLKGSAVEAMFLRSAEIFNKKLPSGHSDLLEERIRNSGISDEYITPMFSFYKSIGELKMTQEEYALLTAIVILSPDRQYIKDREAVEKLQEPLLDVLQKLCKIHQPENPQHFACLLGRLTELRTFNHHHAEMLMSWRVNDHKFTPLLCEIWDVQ

Target: T1, full length human FXR (Homo sapiens, UniProt Q96RI1)
T1 construct: The full length human FXR (NM_005123) was cloned into pTRexDest30; expressed in transfected cells
T1 sequence (Q96RI1 1-472 isoform Q96RI1-2): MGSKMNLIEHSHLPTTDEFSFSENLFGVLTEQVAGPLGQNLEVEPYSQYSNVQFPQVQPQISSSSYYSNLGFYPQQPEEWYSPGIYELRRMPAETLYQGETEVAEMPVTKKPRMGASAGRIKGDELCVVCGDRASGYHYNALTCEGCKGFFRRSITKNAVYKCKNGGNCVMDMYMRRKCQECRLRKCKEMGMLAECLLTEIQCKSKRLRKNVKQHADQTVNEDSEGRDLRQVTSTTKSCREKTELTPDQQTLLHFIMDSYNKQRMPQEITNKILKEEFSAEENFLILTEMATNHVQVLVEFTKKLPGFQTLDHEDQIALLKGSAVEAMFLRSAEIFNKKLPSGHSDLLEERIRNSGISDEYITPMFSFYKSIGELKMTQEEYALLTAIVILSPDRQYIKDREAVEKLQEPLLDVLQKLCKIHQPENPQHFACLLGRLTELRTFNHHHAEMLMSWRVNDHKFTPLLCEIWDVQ
Test: Direct reporter (DR) gene assay in stably transfected HEK293 cells (D2IV3), luciferase
Assay type: cell-based
Conditions: 100nM, compared to cells grown in presence of DMSO as a vehicle
Excerpt: In the direct reporter gene assay, HEK293 cells, obtained from DSMZ (German Collection of Microorganisms and Cell Cultures, Braunschweig, Germany) were stably transfected with pTRexDest30 (Invitrogen) derivative pTRexDest30-hFXR and pGL2promoter (Promega) derivative pGL2promoter-2xIBABP-RE. The full length human FXR (NM_005123) was cloned into pTRexDest30 according to the manufacturer protocol for the Gateway system (Invitrogen). The FXR response elements cccaGGGTGAaTAACCTcggggctctgtccctccaatcccaGGGTGAaTAACCTcggg were derived from the human IBABP-P promoter (Grober et al. 1999, JBC, 174, pp.29749-29754) and cloned into pGL2promoter. […] For the direct reporter gene assays, D2IV3 cells were grown in MEM with L-Glutamine and Earle's BSS supplemented with 10% fetal bovine serum, 0.1mM nonessential amino acids, 1mM sodium pyruvate, and 100units Penicilin/[…] per ml at 37°C in 5% CO2. Medium and supplements were obtained from Invitrogen. For the assay, 5x10^5 cells were plated per well in 96well plates in 100µl per well minimum essential medium (same composition as above) incubated at 37°C in 5% CO2. The following day the cells were >90% confluence. […] Cells were incubated for additional 16 hours before firefly luciferase activity was measured. […]

Q: `CC(C)c1onc(-c2c(Cl)cccc2Cl)c1COc1ccc(/C=C/c2cccc(C(=O)O)c2)c(Cl)c1` [GW4064, reference compound] was tested. Which “induction of luciferase activity” value did it give?
A: 8 fold
